Target: D(2) dopamine receptor (Rattus norvegicus, UniProt P61169)
Assay: Displacement of [3H]-Spiperone from Dopamine receptor D2 in rat striatum

Protein sequences, listed by entry. Tags and fused reporters are not part of them.
UniProt P61169, whole entry: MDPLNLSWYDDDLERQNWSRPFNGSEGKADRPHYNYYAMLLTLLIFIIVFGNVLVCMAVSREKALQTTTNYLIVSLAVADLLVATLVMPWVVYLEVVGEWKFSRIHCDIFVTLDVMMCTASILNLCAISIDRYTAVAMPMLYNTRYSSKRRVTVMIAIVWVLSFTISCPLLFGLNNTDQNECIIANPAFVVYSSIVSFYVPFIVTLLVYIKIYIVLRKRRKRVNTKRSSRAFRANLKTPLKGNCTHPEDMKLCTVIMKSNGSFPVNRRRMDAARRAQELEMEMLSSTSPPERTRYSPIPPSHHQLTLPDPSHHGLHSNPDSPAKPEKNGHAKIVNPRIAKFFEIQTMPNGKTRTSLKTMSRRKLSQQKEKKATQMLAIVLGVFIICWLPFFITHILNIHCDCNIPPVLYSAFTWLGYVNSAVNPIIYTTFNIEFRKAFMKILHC

Work on `COc1ccccc1N1CCN(CCNC(=O)c2ccc(F)cc2)CC1` yielded a Ki of 4.3 nM.

— ChEMBL document CHEMBL1123975, “2-Phenylpyrroles as conformationally restricted benzamide analogues. A new class of potential antipsychotics. 2” (J Med Chem, 1988)
